Experimental data as given in US8815891B2, “Tricyclic derivative or pharmaceutically acceptable salts thereof, preparation method thereof, and pharmaceutical composition containing the same” (Je Il Pharmaceutical Co., Ltd., priority 2008, dated 2014).
Counter-ions that a name gives are not always drawn.

Amino acid sequences for entries named in this document (tags omitted).
UniProt Q9R152, whole entry: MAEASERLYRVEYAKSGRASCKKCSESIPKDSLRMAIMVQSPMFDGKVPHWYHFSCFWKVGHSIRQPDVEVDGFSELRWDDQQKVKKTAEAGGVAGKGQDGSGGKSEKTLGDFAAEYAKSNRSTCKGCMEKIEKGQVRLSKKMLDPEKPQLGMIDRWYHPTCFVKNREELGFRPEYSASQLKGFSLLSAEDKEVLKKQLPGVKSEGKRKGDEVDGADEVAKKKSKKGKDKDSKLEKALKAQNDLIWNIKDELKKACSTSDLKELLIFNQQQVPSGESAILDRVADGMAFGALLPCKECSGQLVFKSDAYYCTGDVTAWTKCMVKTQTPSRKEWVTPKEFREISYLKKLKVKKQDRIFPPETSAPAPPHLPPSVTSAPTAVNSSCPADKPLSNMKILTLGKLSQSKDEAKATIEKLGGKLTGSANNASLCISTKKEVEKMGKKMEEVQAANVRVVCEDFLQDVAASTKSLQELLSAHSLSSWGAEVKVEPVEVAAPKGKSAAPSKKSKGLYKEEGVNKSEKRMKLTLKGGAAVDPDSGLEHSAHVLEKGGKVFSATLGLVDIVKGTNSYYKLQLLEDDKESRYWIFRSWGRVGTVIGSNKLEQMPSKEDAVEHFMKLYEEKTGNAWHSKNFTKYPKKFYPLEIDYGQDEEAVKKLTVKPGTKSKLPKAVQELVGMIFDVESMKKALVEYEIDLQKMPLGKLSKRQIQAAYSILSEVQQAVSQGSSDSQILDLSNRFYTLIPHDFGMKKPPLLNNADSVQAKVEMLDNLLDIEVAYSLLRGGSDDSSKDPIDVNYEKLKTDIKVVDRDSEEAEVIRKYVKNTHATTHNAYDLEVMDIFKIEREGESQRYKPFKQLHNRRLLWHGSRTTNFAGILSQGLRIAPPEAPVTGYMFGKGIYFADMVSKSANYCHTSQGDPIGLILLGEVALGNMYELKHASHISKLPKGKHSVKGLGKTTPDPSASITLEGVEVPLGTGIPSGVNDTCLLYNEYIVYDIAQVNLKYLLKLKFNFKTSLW

Target: PARP-1 enzyme (Cricetulus griseus (Chinese hamster) (Cricetulus barabensis griseus), UniProt Q9R152)
Test: Intracellular PARP inhibitory activity (NAD(P)H released by MMS-treated CHO-K1 cells)
Format: cell-based

Row | SMILES | IC50
1 | COc1cc(CNC(C)C)cc2[nH]c(=O)c3c(c12)NCCC3 [Example 88, 8-[(Isopropylamino)methyl]-10-methoxy-1,2,3,4-tetrahydrobenzo[h][1,6]naphthyridine-5 (6H)-one dihydrochloride] | 270 nM
2 | O=c1[nH]c2cc(CN3CCOCC3)ccc2c2c1CCCN2 [Example 49, 8-(Morpholinomethyl)-1,2,3,4-tetrahydrobenzo[h][1,6]naphthyridine-5(6H)-one dihydrochloride] | 510 nM
3 | O=c1[nH]c2ccc(OCCc3ccccc3)cc2c2c1CCCN2 [Example 25, 9-Penethoxy-1,2,3,4-tetrahydrobenzo[h][1,6]naphthyridine-5(6H)-one dihydrochloride] | 3180 nM
4 | NCc1ccc2c3c(c(=O)[nH]c2c1)CCCN3 [Example 112, 8-(Aminomethyl)-1,2,3,4-tetrahydrobenzo[h][1,6]naphthyridine-5 (6H)-one dihydrochloride] | 2650 nM
5 | COc1cc(CNCCN2CCOCC2)cc2[nH]c(=O)c3c(c12)NCCC3 [Example 107, 10-Methoxy-8-[(2-morpholinoethylamino)methyl)-1,2,3,4-tetrahydrobenzo[h][1,6]naphthyridine-5(6H)-one trihydrochloride] | 2220 nM
6 | COc1cc(CN(C)C2CCOCC2)cc2[nH]c(=O)c3c(c12)NCCC3 [Example 115, 10-Methoxy-8-{[methyl(tetrahydro-2H-pyran-4-yl)amino]methyl}-1,2,3,4-tetrahydrobenzo[h][1,6]naphthyridine-5(6H)-one dihydrochloride] | 1220 nM
7 | CNC(C)c1ccc2c3c(c(=O)[nH]c2c1)CCCN3 (centres unmarked) [Example 39, 8-[1-(Methylamino)ethyl]-1,2,3,4-tetrahydrobenzo[h][1,6]naphthyridine-5(6H)-one dihydrochloride] | 1560 nM
8 | COc1cc(CO)cc2[nH]c(=O)c3c(c12)NCCC3 [Example 105, 8-(Hydroxymethyl)-10-methoxy-1,2,3,4-tetrahydrobenzo[h][1,6]naphthyridine-5(6H)-one hydrochloride] | 1210 nM
9 | COc1cc(CN2CCCC2)cc2[nH]c(=O)c3c(c12)NCCC3 [Example 77, 10-Methoxy-8-(pyrrolidine-1-ylmethyl)-1,2,3,4-tetrahydrobenzo[h][1,6]naphthyridine-5(6H)-one dihydrochloride] | 820 nM
10 | CCOc1cc(CN2CCCCC2)cc2[nH]c(=O)c3c(c12)NCCC3 [Example 102, 10-Ethoxy-8-(piperidine-1-ylmethyl)-1,2,3,4-tetrahydrobenzo[h][1,6]naphthyridine-5(6H)-one dihydrochloride] | 500 nM
11 | CC(C)NCc1ccc2c3c(c(=O)[nH]c2c1)CCCN3 [Example 45, 8-[(Isopropylamino)methyl]-1,2,3,4-tetrahydrobenzo[h][1,6]naphthyridine-5(6H)-one dihydrochloride] | 1160 nM
12 | COCCOc1cc(CN(C)C)cc2[nH]c(=O)c3c(c12)NCCC3 [Example 116, 8-[(Dimethylamino)methyl]-10-(2-methoxyetoxy)-1,2,3,4-tetrahydrobenzo[h][1,6]naphthyridine-5(6H)-one dihydrochloride] | 520 nM
13 | CNCc1ccc2c3c(c(=O)[nH]c2c1)CCCN3 [Example 52, 8-[(Methylamino)methyl]-1,2,3,4-tetrahydrobenzo[h][1,6]naphthyridine-5(6H)-one dihydrochloride] | 170 nM
14 | COc1ccc2[nH]c(=O)c3c(c2c1)NCCC3 [Example 3, 9-Methoxy-1,2,3,4-tetrahydrobenzo[h][1,6]naphthyridine-5(6H)-one hydrochloride] | 870 nM
